The target in one assay is WT hCB2 receptor (Homo sapiens, UniProt P34972). In words: Saturation-binding assay, WT hCB2 membranes. The settings on record: HEK293 membranes, mean (95% CI).
In assay [1] the target is hCB2 C6.47(257)A mutant receptor (Homo sapiens, UniProt P34972, C257A). The assay is described as follows: Saturation-binding assay, hCB2 C6.47. The settings on record: HEK293 membranes, mean (95% CI).
The target in assay [2] is hCB1 K3.28(192)A mutant receptor (Homo sapiens, UniProt P21554, K192A).
Assay [3] has as its target hCB2 C6.47(257)S mutant receptor (Homo sapiens, UniProt P34972, C257S). In words: Saturation-binding assay, hCB2 C6.47. The settings on record: HEK293 membranes, mean (95% CI).

Amino acid sequences for entries named in this document (tags omitted).
UniProt P34972, whole entry: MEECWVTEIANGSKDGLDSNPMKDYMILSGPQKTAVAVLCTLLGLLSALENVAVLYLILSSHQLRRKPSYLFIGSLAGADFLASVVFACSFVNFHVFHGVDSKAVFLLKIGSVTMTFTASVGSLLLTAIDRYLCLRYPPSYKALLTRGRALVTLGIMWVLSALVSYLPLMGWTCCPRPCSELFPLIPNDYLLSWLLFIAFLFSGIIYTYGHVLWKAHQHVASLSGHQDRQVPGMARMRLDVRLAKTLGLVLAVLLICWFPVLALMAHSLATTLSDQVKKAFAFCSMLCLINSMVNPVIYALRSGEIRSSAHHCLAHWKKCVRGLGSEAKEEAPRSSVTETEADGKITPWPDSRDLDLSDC
UniProt P34972, whole entry C257A: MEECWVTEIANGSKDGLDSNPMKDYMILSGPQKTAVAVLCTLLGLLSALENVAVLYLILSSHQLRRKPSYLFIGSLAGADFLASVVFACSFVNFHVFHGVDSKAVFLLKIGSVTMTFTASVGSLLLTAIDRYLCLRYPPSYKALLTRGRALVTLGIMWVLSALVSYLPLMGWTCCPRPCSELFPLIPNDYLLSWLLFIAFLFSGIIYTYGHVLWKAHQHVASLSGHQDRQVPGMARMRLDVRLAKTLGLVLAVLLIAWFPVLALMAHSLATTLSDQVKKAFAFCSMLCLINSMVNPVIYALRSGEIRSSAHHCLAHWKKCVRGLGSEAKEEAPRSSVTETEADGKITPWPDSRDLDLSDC
UniProt P34972, whole entry C257S: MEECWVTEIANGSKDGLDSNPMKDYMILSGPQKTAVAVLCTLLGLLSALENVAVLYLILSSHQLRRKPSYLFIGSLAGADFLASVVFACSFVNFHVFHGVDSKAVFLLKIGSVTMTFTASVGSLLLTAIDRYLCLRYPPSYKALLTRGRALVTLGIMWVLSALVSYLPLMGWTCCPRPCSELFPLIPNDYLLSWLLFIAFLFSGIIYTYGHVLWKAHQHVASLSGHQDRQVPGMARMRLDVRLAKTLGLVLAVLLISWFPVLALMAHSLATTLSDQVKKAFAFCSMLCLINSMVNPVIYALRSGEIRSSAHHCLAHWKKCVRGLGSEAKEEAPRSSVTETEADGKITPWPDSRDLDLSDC
UniProt P21554, whole entry K192A: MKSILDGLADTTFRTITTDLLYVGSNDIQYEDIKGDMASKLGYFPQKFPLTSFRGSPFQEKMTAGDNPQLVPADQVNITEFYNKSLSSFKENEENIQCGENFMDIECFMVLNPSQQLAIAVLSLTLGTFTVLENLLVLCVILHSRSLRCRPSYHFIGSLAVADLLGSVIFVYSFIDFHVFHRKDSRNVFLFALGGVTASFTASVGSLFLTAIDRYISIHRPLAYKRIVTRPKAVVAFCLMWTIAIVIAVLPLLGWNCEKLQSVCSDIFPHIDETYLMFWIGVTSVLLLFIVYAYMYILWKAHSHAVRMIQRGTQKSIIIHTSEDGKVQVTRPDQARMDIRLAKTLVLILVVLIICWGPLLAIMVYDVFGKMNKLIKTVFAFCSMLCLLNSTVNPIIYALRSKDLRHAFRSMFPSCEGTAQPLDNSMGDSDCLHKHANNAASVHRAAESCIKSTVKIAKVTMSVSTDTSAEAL

Each structure is given as a SMILES string.

Consider `CCCCCCC(C)(C)c1ccc([C@@H]2C[C@H](O)CC[C@H]2CCCO)c(O)c1` [[^3H]-CP55940], for which the Bmax was 1.19 (1.01–1.37) pmol/mg at WT hCB2 receptor, 0.96 (0.84–1.08) pmol/mg in assay [1] and 1.07 (0.95–1.18) pmol/mg in assay [3]. In assay [2], the “saturable binding of radioligand” value is listed as “no saturable binding”.

These data come from PMC3700404 (Chemistry & biology, 2008).
